Values quoted from earlier work, collected in US5726184A, “Tetralin compounds with improved MDR activity” (Vertex Pharmaceuticals Incorporated, priority 1995, dated 1998).

Conditions: in patients, concentrations needed for sensitization; Hait et al.; Twentyman et al.; cited from earlier work

11-methyl-leucine cyclosporin [11-met-leu CsA]
immunosuppressive effect: do not exert an immunosuppressive effect
